Values quoted from earlier work in PMC8327781 (Journal of medicinal chemistry, 2021).

Columns and labels:
Expi293F cells = details: 10 μM, 72 hours; cited from earlier work
HEK293 cells = details: 10 μM, 72 hours; cited from earlier work

Compound: N#CC[C@H](C1CCCC1)n1cc(-c2ncnc3[nH]ccc23)cn1 [Ruxolitinib]
- Effect on proliferation (Expi293F cells): did not affect the proliferation
- Effect on proliferation (HEK293 cells): did not affect the proliferation
